In PubChem BioAssay (NCI):
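Assay format: 96-well plates, 48-hour exposure. Abbreviation: GI50, concentration required for 50% inhibition of growth. The concentration for full growth arrest is given as TGI.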

Key:
Experiment in all cases: NCI anticancer screen, dose series, 48 h
SNB-75 CNS = tested on: SNB-75 CNS
U251 CNS = tested on: U251 CNS
HT29 colon = tested on: HT29 colon
786-0 renal = tested on: 786-0 renal
HL-60(TB) leukemia = tested on: HL-60(TB) leukemia
UACC-257 melanoma = tested on: UACC-257 melanoma
M14 melanoma = tested on: M14 melanoma
PC-3 prostate = tested on: PC-3 prostate
SNB-19 CNS = tested on: SNB-19 CNS
CAKI-1 renal = tested on: CAKI-1 renal
MALME-3M melanoma = tested on: MALME-3M melanoma
HCT-116 colon = tested on: HCT-116 colon
SK-OV-3 ovarian = tested on: SK-OV-3 ovarian
KM12 colon = tested on: KM12 colon
MDA-MB-435 = tested on: MDA-MB-435
SN12C renal = tested on: SN12C renal
BT-549 breast = tested on: BT-549 breast
OVCAR-4 ovarian = tested on: OVCAR-4 ovarian
RXF 393 renal = tested on: RXF 393 renal
MOLT-4 leukemia = tested on: MOLT-4 leukemia
A498 renal = tested on: A498 renal
HS 578T breast = tested on: HS 578T breast
SK-MEL-28 melanoma = tested on: SK-MEL-28 melanoma
UO-31 renal = tested on: UO-31 renal
NCI/ADR-RES ovarian = tested on: NCI/ADR-RES ovarian
HOP-62 NSCLC = tested on: HOP-62 NSCLC
COLO 205 colon = tested on: COLO 205 colon
LOX IMVI melanoma = tested on: LOX IMVI melanoma
OVCAR-3 ovarian = tested on: OVCAR-3 ovarian
SW-620 colon = tested on: SW-620 colon
NCI-H322M lung = tested on: NCI-H322M lung
UACC-62 melanoma = tested on: UACC-62 melanoma
OVCAR-5 ovarian = tested on: OVCAR-5 ovarian
HCC-2998 colon = tested on: HCC-2998 colon
EKVX NSCLC = tested on: EKVX NSCLC
RPMI-8226 leukemia = tested on: RPMI-8226 leukemia
SF-268 CNS = tested on: SF-268 CNS
T-47D breast = tested on: T-47D breast
DU-145 prostate = tested on: DU-145 prostate
SF-295 CNS = tested on: SF-295 CNS
MDA-N = tested on: MDA-N
SK-MEL-2 melanoma = tested on: SK-MEL-2 melanoma
HOP-92 NSCLC = tested on: HOP-92 NSCLC
NCI-H522 lung = tested on: NCI-H522 lung
TK-10 renal = tested on: TK-10 renal
OVCAR-8 ovarian = tested on: OVCAR-8 ovarian
CCRF-CEM leukemia = tested on: CCRF-CEM leukemia
IGROV1 ovarian = tested on: IGROV1 ovarian
NCI-H460 lung = tested on: NCI-H460 lung
MCF7 breast = tested on: MCF7 breast
SR leukemia = tested on: SR leukemia
A549 NSCLC = tested on: A549 NSCLC
NCI-H226 lung = tested on: NCI-H226 lung
HCT-15 colon = tested on: HCT-15 colon
NCI-H23 lung = tested on: NCI-H23 lung
SK-MEL-5 melanoma = tested on: SK-MEL-5 melanoma
SF-539 CNS = tested on: SF-539 CNS
K-562 leukemia = tested on: K-562 leukemia
MDA-MB-231 breast = tested on: MDA-MB-231 breast
ACHN renal = tested on: ACHN renal

For `Fc1cccc(NC2=NCC(CI)S2)c1` (stereo not given), the GI50 (SNB-75 CNS) was 27.1 µM, the TGI (SNB-75 CNS) was > 100 µM and the GI50 (U251 CNS) was 90.9 µM. The TGI (U251 CNS) was > 100 µM, the GI50 (HT29 colon) was 89.4 µM and the TGI (HT29 colon) was > 100 µM. For the same compound, the GI50 (786-0 renal) was > 100 µM, the TGI (786-0 renal) was > 100 µM and the GI50 (HL-60(TB) leukemia) was 13.2 µM. For the same compound, the TGI (HL-60(TB) leukemia) was 38.2 µM, the GI50 (UACC-257 melanoma) was > 100 µM and the TGI (UACC-257 melanoma) was > 100 µM. For the same compound, the GI50 (M14 melanoma) was > 100 µM, the TGI (M14 melanoma) was > 100 µM and the GI50 (PC-3 prostate) was 59.8 µM. For the same compound, the TGI (PC-3 prostate) was > 100 µM, the GI50 (SNB-19 CNS) was > 100 µM and the TGI (SNB-19 CNS) was > 100 µM. For the same compound, the GI50 (CAKI-1 renal) was > 100 µM, the TGI (CAKI-1 renal) was > 100 µM and the GI50 (MALME-3M melanoma) was > 100 µM. For the same compound, the TGI (MALME-3M melanoma) was > 100 µM, the GI50 (HCT-116 colon) was 87.9 µM and the TGI (HCT-116 colon) was > 100 µM. The GI50 (SK-OV-3 ovarian) was > 100 µM, the TGI (SK-OV-3 ovarian) was > 100 µM and the GI50 (KM12 colon) was 39 µM. The TGI (KM12 colon) was > 100 µM, the GI50 (MDA-MB-435) was > 100 µM and the TGI (MDA-MB-435) was > 100 µM. The GI50 (SN12C renal) was > 100 µM, the TGI (SN12C renal) was > 100 µM and the GI50 (BT-549 breast) was > 100 µM. For the same compound, the TGI (BT-549 breast) was > 100 µM, the GI50 (OVCAR-4 ovarian) was 42.6 µM and the TGI (OVCAR-4 ovarian) was 90.3 µM. For the same compound, the GI50 (RXF 393 renal) was 84.5 µM, the TGI (RXF 393 renal) was > 100 µM and the GI50 (MOLT-4 leukemia) was 16.2 µM. For the same compound, the TGI (MOLT-4 leukemia) was 67.1 µM, the GI50 (A498 renal) was 84.3 µM and the TGI (A498 renal) was > 100 µM. The GI50 (HS 578T breast) was 22.2 µM, the TGI (HS 578T breast) was > 100 µM and the GI50 (SK-MEL-28 melanoma) was > 100 µM. The TGI (SK-MEL-28 melanoma) was > 100 µM, the GI50 (UO-31 renal) was 70.4 µM and the TGI (UO-31 renal) was > 100 µM. The GI50 (NCI/ADR-RES ovarian) was 54.6 µM, the TGI (NCI/ADR-RES ovarian) was > 100 µM and the GI50 (HOP-62 NSCLC) was > 100 µM. The TGI (HOP-62 NSCLC) was > 100 µM, the GI50 (COLO 205 colon) was > 100 µM and the TGI (COLO 205 colon) was > 100 µM. For the same compound, the GI50 (LOX IMVI melanoma) was 56.1 µM, the TGI (LOX IMVI melanoma) was > 100 µM and the GI50 (OVCAR-3 ovarian) was > 100 µM. The TGI (OVCAR-3 ovarian) was > 100 µM, the GI50 (SW-620 colon) was 68.2 µM and the TGI (SW-620 colon) was > 100 µM. The GI50 (NCI-H322M lung) was > 100 µM, the TGI (NCI-H322M lung) was > 100 µM and the GI50 (UACC-62 melanoma) was > 100 µM. The TGI (UACC-62 melanoma) was > 100 µM, the GI50 (OVCAR-5 ovarian) was > 100 µM and the TGI (OVCAR-5 ovarian) was > 100 µM. For the same compound, the GI50 (HCC-2998 colon) was > 100 µM, the TGI (HCC-2998 colon) was > 100 µM and the GI50 (EKVX NSCLC) was > 100 µM. For the same compound, the TGI (EKVX NSCLC) was > 100 µM, the GI50 (RPMI-8226 leukemia) was > 100 µM and the TGI (RPMI-8226 leukemia) was > 100 µM. For the same compound, the GI50 (SF-268 CNS) was > 100 µM, the TGI (SF-268 CNS) was > 100 µM and the GI50 (T-47D breast) was 48.9 µM. For the same compound, the TGI (T-47D breast) was 92 µM, the GI50 (DU-145 prostate) was > 100 µM and the TGI (DU-145 prostate) was > 100 µM. For the same compound, the GI50 (SF-295 CNS) was > 100 µM, the TGI (SF-295 CNS) was > 100 µM and the GI50 (MDA-N) was > 100 µM. For the same compound, the TGI (MDA-N) was > 100 µM, the GI50 (SK-MEL-2 melanoma) was > 100 µM and the TGI (SK-MEL-2 melanoma) was > 100 µM. The GI50 (HOP-92 NSCLC) was > 100 µM, the TGI (HOP-92 NSCLC) was > 100 µM and the GI50 (NCI-H522 lung) was 26 µM. For the same compound, the TGI (NCI-H522 lung) was > 100 µM, the GI50 (TK-10 renal) was > 100 µM and the TGI (TK-10 renal) was > 100 µM. For the same compound, the GI50 (OVCAR-8 ovarian) was > 100 µM, the TGI (OVCAR-8 ovarian) was > 100 µM and the GI50 (CCRF-CEM leukemia) was 12.2 µM. The TGI (CCRF-CEM leukemia) was 41.3 µM, the GI50 (IGROV1 ovarian) was > 100 µM and the TGI (IGROV1 ovarian) was > 100 µM. For the same compound, the GI50 (NCI-H460 lung) was 87.6 µM, the TGI (NCI-H460 lung) was > 100 µM and the GI50 (MCF7 breast) was 75.9 µM. The TGI (MCF7 breast) was > 100 µM, the GI50 (SR leukemia) was 17.8 µM and the TGI (SR leukemia) was 73.6 µM. For the same compound, the GI50 (A549 NSCLC) was > 100 µM, the TGI (A549 NSCLC) was > 100 µM and the GI50 (NCI-H226 lung) was 74.3 µM. For the same compound, the TGI (NCI-H226 lung) was > 100 µM, the GI50 (HCT-15 colon) was 78.6 µM and the TGI (HCT-15 colon) was > 100 µM. The GI50 (NCI-H23 lung) was 88.8 µM, the TGI (NCI-H23 lung) was > 100 µM and the GI50 (SK-MEL-5 melanoma) was > 100 µM. For the same compound, the TGI (SK-MEL-5 melanoma) was > 100 µM, the GI50 (SF-539 CNS) was > 100 µM and the TGI (SF-539 CNS) was > 100 µM. For the same compound, the GI50 (K-562 leukemia) was 34.4 µM, the TGI (K-562 leukemia) was > 100 µM and the GI50 (MDA-MB-231 breast) was > 100 µM. The TGI (MDA-MB-231 breast) was > 100 µM, the GI50 (ACHN renal) was > 100 µM and the TGI (ACHN renal) was > 100 µM.
